# In patent publication US5807832A, “Oral delivery of biologically active substances bound to vitamin B12” (Biotech Australia Pty Limited, priority 1988, dated 1998):
# Tested on: Mature C57B1/6J female mice
# Test: Stimulation of ovulation in PMSG-primed mice (corpora haemorrhagica on the ovaries)
# Type: in vivo
# Settings: Table 4; PMSG 8 IU day 0; 10 IU iv day 2
# Protocol: Mature C57B1/6J female mice were treated in the following fashion: On day 0 all mice received a subcutaneous (s.'c) superovulating dose of pregnant mare serum gonadotraphin (PMSG) to stimulate the growth of ovarian follicles. After 48 hours mice received various doses of LHRH, Lys-6-LHRH or saline. On day 3 mice were sacrificed and examined for ovulation. Ovulation was assessed by examining for the presence of corpora haemorrhagica on the ovaries using a stereoscopic microscope at […].
substance,measurement,value
HCG: hormone given iv as positive control for ovulation,Number of mice ovulating,5/5
